# Laboratory results reported in PubChem BioAssay (Tox21).
# Amino acid sequences for entries named in this document (tags omitted). A change or cut given only in a name is not applied to a line headed by its entry.
# UniProt P34981: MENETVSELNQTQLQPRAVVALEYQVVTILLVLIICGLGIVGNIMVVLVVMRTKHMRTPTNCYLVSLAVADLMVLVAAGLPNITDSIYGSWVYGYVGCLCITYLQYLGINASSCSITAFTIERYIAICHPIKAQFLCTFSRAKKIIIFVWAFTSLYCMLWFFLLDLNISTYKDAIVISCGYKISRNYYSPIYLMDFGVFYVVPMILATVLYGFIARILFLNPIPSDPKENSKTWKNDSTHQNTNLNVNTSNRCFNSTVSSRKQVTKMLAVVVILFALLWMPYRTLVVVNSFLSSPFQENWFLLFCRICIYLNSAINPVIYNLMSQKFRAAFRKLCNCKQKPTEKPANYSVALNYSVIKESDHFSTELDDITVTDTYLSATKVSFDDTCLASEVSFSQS
# UniProt P03372, whole entry, looked up: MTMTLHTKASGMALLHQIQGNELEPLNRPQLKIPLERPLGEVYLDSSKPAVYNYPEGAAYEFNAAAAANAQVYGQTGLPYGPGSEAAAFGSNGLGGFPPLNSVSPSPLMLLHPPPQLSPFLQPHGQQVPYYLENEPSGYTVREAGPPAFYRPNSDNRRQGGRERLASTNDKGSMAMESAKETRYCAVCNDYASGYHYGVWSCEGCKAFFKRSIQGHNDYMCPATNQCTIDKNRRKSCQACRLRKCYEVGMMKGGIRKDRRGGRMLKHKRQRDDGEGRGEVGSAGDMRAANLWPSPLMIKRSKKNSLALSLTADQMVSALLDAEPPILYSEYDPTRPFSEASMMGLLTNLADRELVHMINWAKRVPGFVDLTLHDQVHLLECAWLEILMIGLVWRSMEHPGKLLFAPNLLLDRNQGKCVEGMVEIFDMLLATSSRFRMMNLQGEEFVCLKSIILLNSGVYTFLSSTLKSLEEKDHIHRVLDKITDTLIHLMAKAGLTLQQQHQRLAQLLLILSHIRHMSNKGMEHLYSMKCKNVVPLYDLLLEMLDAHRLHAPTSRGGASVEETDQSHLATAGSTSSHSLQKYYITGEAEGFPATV
# UniProt Q96RI1: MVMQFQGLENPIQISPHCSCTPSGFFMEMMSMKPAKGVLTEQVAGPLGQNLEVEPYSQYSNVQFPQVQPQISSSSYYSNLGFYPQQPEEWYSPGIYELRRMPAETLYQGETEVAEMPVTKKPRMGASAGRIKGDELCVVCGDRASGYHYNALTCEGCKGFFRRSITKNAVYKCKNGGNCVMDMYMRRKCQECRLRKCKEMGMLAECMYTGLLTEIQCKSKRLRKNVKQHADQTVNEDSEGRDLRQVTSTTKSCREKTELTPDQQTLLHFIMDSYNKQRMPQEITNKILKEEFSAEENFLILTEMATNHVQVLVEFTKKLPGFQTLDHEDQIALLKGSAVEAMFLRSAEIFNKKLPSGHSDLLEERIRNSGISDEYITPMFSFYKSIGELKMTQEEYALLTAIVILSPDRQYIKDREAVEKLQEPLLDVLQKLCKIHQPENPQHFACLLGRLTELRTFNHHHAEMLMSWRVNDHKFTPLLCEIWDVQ
# UniProt Q92731, whole entry, looked up: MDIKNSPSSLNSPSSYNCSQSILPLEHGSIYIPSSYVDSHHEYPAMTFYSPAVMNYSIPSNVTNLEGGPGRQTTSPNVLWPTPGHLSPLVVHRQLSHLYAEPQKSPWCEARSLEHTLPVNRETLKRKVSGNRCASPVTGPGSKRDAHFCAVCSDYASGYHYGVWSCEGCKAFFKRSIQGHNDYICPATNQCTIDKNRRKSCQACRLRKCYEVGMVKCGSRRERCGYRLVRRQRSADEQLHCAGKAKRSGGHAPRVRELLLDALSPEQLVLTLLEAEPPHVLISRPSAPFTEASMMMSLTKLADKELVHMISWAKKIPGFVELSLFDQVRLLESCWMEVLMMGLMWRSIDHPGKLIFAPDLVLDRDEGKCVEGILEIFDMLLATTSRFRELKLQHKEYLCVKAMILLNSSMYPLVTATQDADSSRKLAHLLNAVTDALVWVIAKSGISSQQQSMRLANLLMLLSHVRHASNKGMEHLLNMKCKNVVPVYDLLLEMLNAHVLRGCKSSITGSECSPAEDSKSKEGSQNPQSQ
# UniProt P11511: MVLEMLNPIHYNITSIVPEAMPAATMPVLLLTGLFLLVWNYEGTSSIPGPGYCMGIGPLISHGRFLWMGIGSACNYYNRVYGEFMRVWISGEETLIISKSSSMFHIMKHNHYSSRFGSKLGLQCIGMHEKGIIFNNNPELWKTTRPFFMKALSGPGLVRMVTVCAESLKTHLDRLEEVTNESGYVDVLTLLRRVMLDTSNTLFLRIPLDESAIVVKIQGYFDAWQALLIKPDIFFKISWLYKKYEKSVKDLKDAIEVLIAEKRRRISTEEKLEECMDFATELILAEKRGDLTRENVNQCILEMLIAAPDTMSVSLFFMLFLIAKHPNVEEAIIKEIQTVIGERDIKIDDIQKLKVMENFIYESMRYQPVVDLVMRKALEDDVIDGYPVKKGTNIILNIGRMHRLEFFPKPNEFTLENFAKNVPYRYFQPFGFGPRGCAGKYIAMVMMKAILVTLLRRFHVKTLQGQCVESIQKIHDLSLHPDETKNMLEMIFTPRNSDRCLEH
# UniProt P35869: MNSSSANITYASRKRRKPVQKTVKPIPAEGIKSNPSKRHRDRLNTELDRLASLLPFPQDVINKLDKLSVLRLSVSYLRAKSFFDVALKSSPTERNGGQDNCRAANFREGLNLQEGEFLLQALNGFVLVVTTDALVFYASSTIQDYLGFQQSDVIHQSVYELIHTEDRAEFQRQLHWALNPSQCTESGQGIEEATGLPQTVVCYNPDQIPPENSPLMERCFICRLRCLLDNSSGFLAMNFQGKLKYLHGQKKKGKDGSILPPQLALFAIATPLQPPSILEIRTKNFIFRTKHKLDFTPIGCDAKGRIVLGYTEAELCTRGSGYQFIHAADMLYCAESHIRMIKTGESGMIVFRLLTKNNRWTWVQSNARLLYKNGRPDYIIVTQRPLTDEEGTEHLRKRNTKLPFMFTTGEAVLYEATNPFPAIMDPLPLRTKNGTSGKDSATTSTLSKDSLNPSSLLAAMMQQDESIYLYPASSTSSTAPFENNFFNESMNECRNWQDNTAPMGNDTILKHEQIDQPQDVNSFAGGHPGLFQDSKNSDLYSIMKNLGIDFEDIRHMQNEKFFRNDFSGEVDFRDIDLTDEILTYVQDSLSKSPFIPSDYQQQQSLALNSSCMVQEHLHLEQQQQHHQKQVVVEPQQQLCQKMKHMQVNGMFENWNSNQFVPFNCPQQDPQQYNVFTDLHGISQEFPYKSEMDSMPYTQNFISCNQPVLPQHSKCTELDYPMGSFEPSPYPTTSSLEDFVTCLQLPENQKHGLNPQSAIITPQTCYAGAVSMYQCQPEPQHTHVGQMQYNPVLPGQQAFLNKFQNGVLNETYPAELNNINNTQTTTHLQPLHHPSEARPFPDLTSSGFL
# UniProt Q12809: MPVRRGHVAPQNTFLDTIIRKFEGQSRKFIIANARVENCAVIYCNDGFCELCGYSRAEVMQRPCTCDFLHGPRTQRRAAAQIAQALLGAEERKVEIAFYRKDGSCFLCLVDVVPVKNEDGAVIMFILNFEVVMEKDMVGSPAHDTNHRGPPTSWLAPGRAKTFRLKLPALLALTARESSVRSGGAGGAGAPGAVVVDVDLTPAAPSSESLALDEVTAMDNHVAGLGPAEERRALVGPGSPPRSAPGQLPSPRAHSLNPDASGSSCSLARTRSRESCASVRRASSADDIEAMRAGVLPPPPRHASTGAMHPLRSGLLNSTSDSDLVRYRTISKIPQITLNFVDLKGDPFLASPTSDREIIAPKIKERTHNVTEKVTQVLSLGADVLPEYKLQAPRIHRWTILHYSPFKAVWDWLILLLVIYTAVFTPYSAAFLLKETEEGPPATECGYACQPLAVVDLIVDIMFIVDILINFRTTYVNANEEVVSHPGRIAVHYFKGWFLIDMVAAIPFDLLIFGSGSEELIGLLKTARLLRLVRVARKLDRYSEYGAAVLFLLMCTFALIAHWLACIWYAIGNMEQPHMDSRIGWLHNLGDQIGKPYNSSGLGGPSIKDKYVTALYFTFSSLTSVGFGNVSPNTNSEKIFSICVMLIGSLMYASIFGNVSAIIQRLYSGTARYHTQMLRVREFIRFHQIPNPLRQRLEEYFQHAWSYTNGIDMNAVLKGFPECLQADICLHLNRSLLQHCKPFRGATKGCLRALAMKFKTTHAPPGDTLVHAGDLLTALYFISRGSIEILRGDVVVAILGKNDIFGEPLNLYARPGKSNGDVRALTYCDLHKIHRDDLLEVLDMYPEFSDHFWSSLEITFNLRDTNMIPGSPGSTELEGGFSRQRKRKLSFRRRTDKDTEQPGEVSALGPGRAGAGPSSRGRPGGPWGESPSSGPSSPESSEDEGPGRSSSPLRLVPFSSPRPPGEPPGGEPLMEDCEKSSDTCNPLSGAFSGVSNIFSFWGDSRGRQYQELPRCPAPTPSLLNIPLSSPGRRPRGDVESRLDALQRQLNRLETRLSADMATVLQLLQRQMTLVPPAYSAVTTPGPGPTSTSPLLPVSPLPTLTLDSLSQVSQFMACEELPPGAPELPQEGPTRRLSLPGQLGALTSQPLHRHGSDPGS
# UniProt P33261, whole entry, looked up: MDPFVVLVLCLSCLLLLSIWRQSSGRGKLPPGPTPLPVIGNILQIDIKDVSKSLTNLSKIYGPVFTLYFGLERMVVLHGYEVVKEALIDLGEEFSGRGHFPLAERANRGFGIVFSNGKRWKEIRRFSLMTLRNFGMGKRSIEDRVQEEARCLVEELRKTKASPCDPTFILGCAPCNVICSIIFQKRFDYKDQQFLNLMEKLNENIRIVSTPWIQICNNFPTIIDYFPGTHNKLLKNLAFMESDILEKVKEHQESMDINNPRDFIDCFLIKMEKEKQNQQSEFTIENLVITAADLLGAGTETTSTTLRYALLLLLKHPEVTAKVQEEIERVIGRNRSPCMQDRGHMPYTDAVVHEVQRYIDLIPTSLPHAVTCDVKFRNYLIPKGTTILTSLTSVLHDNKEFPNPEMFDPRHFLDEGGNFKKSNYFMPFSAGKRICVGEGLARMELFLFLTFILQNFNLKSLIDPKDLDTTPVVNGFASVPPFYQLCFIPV
# Where “and” joins values, the source holds several entries; their conditions need not be identical. Equal entries are not always repeated. For part of these data: This list holds what a sample rich in hits left over. Inconclusive results are not listed. The list shows a part of the results, in another mix than the full data. Calls of active or inactive are those of the source. Unless noted, the call rests on the fitted dose curve; in most records, active means well fitted inhibition curve with a large enough effect in the repeat runs (not every such curve was filed as active); inconclusive means weak or mixed curves; inactive means flat fitted curve, though single readings scatter.
# Columns and labels:
# [1] = target: Thyrotropin-releasing hormone receptor (Homo sapiens) (UniProt P34981); assay: qHTS assay to identify small molecule antagonists of the thyrotropin-releasing hormone receptor (TRHR) signaling pathway (AID 1346877); details: TRHR-HEK293, TRH-induced calcium fluorescence, antagonist mode; further: on the % scale 0 is the no-effect control and ±100 the full control effect
# [2] = target: Estrogen receptor (Homo sapiens) (UniProt P03372); assay: qHTS assay to identify small molecule agonists of the estrogen receptor alpha (ER-alpha) signaling pathway (AID 743075; calls by dose curve;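 further: HEK293 GripTite cells with ER-alpha and UAS-driven beta-lactamase reporter; on the % scale 0 is the no-effect control and ±100 the full control effect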); details: HEK293 ER-alpha-UAS-bla, beta-lactamase FRET ratio, 18 h; series mostly up to 70.1 µM
# [3] = target: Bile acid receptor (Homo sapiens) (UniProt Q96RI1); assay: qHTS assay to identify small molecule antagonists of the farnesoid-X-receptor (FXR) signaling pathway (AID 743217; active means well fitted inhibition curve with a large enough effect in the signal ratio in the repeat runs, not every such curve was filed as active; the % refers to the signal ratio; further: on the % scale 0 is the no-effect control and ±100 the full control effect); details: HEK293T FXR-UAS-bla, beta-lactamase ratio, CDCA-stimulated, 16 h
# Procedure, shortened: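 Screen of the Tox21 10K library in quantitative HTS format using FXR-UAS-bla HEK 293T reporter cells. Agonist chenodeoxycholic acid, 50 uM final, added with compounds; 16 h incubation at 37 °C; beta-lactamase FRET fluorescence measured.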
# [4] = target: Bile acid receptor (Homo sapiens) (UniProt Q96RI1); assay: qHTS assay to identify small molecule agonists of the farnesoid-X-receptor (FXR) signaling pathway (AID 743220; active means well fitted activation curve with a large enough effect in the signal ratio in the repeat runs, not every such curve was filed as active; the % refers to the signal ratio; further: on the % scale 0 is the no-effect control and ±100 the full control effect); details: HEK293T FXR-UAS-bla, beta-lactamase FRET ratio, 16 h
# [5] = target: Estrogen receptor (Homo sapiens) (UniProt P03372); assay: qHTS assay to identify small molecule agonists of the estrogen receptor alpha (ER-alpha) signaling pathway in the presence of an antagonist (AID 1259383; calls by dose curve; further: top concentration of the series differs between compounds; on the % scale 0 is the no-effect control and ±100 the full control effect; nearly all actives have a fitted effect of over 15% in size); details: VM7Luc4E2 cells, ERE-luciferase, +ICI-182,780, 22 h; series mostly up to 92.4 µM
# [6] = target: Estrogen receptor beta (Homo sapiens) (UniProt Q92731); assay: qHTS assay to identify small molecule antagonists of the estrogen receptor beta (ER-beta) signaling pathway (AID 1259378; active means well fitted inhibition curve with a large enough effect in the signal ratio in the repeat runs, not every such curve was filed as active; the % refers to the signal ratio; further: potency means the concentration at half of the fitted maximal effect); details: ER-beta-UAS-bla HEK293T, beta-lactamase FRET ratio, 16 h; series mostly up to 42.5 µM
# Procedure, shortened: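 ER-beta-UAS-bla HEK293T cells in 2% charcoal-stripped FBS medium treated with compound plus 1nM final 17-beta-estradiol for 16 hr at 37C. Beta-lactamase reporter read by FRET substrate fluorescence after 2 hours at room temperature.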
# [7] = target: Nuclear receptor subfamily 1 group I member 2 (Homo sapiens) (UniProt O75469); assay: Human pregnane X receptor (PXR) small molecule agonists, qHTS assay (AID 1346982; active means well fitted curve in the direction sought with a large enough effect in the repeat runs; an effect the other way counts as inactive or inconclusive; further: nearly all actives have a fitted effect of over 35% in size; further: potency means the concentration at half of the fitted maximal effect); details: PXR-Luc HepG2, CYP3A4 luciferase reporter, 24 h; series mostly up to 42.5 µM
# Procedure, shortened: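 Reporter HepG2 cells expressing PXR-Luc are cultured in charcoal-stripped FBS (5%), treated with compounds for 24 hr at 37 C, and assayed by ONE-Glo luminescence after 30 min at room temperature.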
# [8] = target: Nuclear receptor subfamily 1 group I member 2 (Homo sapiens) (UniProt O75469); assay: CYP3A4 induction through human pregnane X receptor (PXR) by small molecules, qHTS assay (AID 1346984; active means well fitted curve in the direction sought with a large enough effect in the repeat runs; an effect the other way counts as inactive or inconclusive; further: on the % scale 0 is the no-effect control and ±100 the full control effect; nearly all actives have a fitted effect of over 40% in size); details: DPX-2 HepG2 PXR, CYP3A4-luciferin luminescence, 24 h; series mostly up to 46.1 µM
# Procedure, shortened: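 Induction measured in HepG2-based DPX-2 cells co-expressing human PXR and a CYP3A4 promoter-driven luciferase. After a 24-hour compound exposure, cells received CYP3A4 luciferin substrate at 3uM final for 3 hours, and light output was then recorded.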
# [9] = target: Nuclear receptor subfamily 1 group I member 2 (Homo sapiens) (UniProt O75469); assay: Human pregnane X receptor (PXR) activation by small molecules, qHTS assay (AID 1346985; active means well fitted curve in the direction sought with a large enough effect in the repeat runs; an effect the other way counts as inactive or inconclusive; further: nearly all actives have a fitted effect of over 40% in size; further: potency means the concentration at half of the fitted maximal effect); details: DPX-2 HepG2 CYP3A4-luciferase, 24 h; series mostly up to 38.3 µM
# [10] = qHTS assay for small molecule agonists of the p53 signaling pathway (AID 651631; calls by dose curve; further: on the % scale 0 is the no-effect control and ±100 the full control effect; nearly all actives have a fitted effect of over 15% in size); details: HCT-116 p53RE-bla reporter, beta-lactamase FRET ratio, 16 h
# Procedure, shortened: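 Fluorescence intensity from cleaved LiveBLAzer B/G substrate (2 h, room temperature) served as the signal. Beforehand, HCT-116 reporter cells bearing p53 response elements were treated 16 h at 37 °C with DMSO-dissolved compounds.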
# [11] = target: Aromatase (Homo sapiens) (UniProt P11511); assay: qHTS assay to identify aromatase inhibitors (AID 743083; active means well fitted curve in the direction sought with a large enough effect in the repeat runs; an effect the other way counts as inactive or inconclusive; further: on the % scale 0 is the no-effect control and ±100 the full control effect; nearly all actives have a fitted effect of over 55% in size); details: MCF-7 aro ERE, testosterone-driven ERE luciferase, 24 h
# [12] = target: Aryl hydrocarbon receptor (Homo sapiens) (UniProt P35869); assay: qHTS assay to identify small molecule that activate the aryl hydrocarbon receptor (AhR) signaling pathway (AID 743085; active means well fitted curve in the direction sought with a large enough effect in the repeat runs; an effect the other way counts as inactive or inconclusive;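 further: HG2L7.5c1 human HepG2 liver cells with stably integrated DRE-driven firefly reporter; on the % scale 0 is the no-effect control and ±100 the full control effect; nearly all actives have a fitted effect of over 15% in size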); details: HepG2 AhR-luc (HG2L7.5c1), luciferase, 24 h
# [13] = Caspase-3/7 induction in HepG2 cells by small molecules, qHTS assay (AID 1346978; active means well fitted curve in the direction sought with a large enough effect in the repeat runs; an effect the other way counts as inactive or inconclusive; further: on the % scale 0 is the no-effect control and ±100 the full control effect; nearly all actives have a fitted effect of over 15% in size); details: HepG2 caspase-3/7 activation, Caspase-Glo luminescence, 17 h
# Procedure, shortened: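 Wild-type HepG2 cells, 2,000/well, settled 5 hr at 37 C and 5% CO2, then compound-treated for 17 hr; caspase-3/7 activity read by luminescent Caspase-Glo 3/7 after 30 min at room temperature.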
# [14] = target: Voltage-gated inwardly rectifying potassium channel KCNH2 (Homo sapiens) (UniProt Q12809); assay: Human Ether-a-go-go-Related Gene (hERG) channel small molecule antagonists: fluorescence cell-based qHTS assay (AID 1671200; active means well fitted curve in the direction sought with a large enough effect in the repeat runs; an effect the other way counts as inactive or inconclusive; further: potency means the concentration at half of the fitted maximal effect; nearly all actives have a fitted effect of over 50% in size); details: hERG-U2OS cells, FluxOR thallium flux fluorescence
# Procedure, shortened: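 First, 1000 cells per well are seeded and cultured overnight at 37 C. Next, FluxOR II dye is loaded for 1 h at room temperature, protected from light. After 10 more minutes, stimulus is added and fluorescence is read.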
# [15] = target: Cytochrome P450 2C19 (Homo sapiens) (UniProt P33261); assay: Cytochrome P450 Family 2 Subfamily C Member 19 (CYP2C19) small molecule antagonists: luciferase reporter qHTS assay (AID 1671197; active means well fitted curve in the direction sought with a large enough effect in the repeat runs; an effect the other way counts as inactive or inconclusive; further: potency means the concentration at half of the fitted maximal effect; nearly all actives have a fitted effect of over 65% in size); details: P450-Glo CYP2C19 enzyme, luciferin luminescence, 1 h
# Procedure, shortened: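 CYP2C19 P450-Glo, 1536-well qHTS. Cpd + enzyme/proluciferin substrate 10 min RT; + NADPH regen, 37C 1 h; stop with luciferin detection reagent, 20 min RT, luminescence (RLU). Pos ctrl ketoconazole.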
compound,measurement,setting,value
CC(COc1ccccc1)N(CCCl)Cc1ccccc1 (stereo unspecified),"activity, negative = inhibition",[1]; at 23.6 µM (top of the series),inactive: -8.74%
same,"activity, negative = inhibition",[1]; at 51.3 µM (top of the series),inactive: -2.61% and inactive: -0.64%
Nc1ccc(N)c(Cl)c1,Potency,[2],inactive
same,"activity change, negative = inhibition",[3]; at 62.6 µM (top of the series),inactive: 1.3%
same,activation,[4]; at 62.6 µM (top of the series),inactive: -0.846% and inactive: 2.1%
same,Potency,[5],inactive
CCOC(=O)n1ccn(C)c1=S,"activity, negative = inhibition",[1]; at 23.6 µM (top of the series),inactive: -4.33%
same,"activity, negative = inhibition",[1]; at 51.3 µM (top of the series),inactive: 2.27%
CC(COc1ccccc1)NN (stereo unspecified),"activity, negative = inhibition",[1]; at 23.6 µM (top of the series),inactive: -4.43%
CCN(CC)CCOCCOC(=O)C1(c2ccccc2)CCCC1,"activity, negative = inhibition",[1]; at 23.6 µM (top of the series),inactive: -2.95%
CC(C)OC(=O)C(C)(C)Oc1ccc(C(=O)c2ccc(Cl)cc2)cc1,"activity, negative = inhibition",[1]; at 23.6 µM (top of the series),inactive: -2.49%
same,"activity, negative = inhibition",[1]; at 51.3 µM (top of the series),inactive: -0.0727%
NC(=O)c1cccnc1,"activity, negative = inhibition",[1]; at 23.6 µM (top of the series),inactive: 3.7%
same,"activity, negative = inhibition",[1]; at 51.3 µM (top of the series),inactive: 1.3% and inactive: 0.742%
NC[C@H](O)c1ccc(O)c(O)c1,"activity, negative = inhibition",[1]; at 23.6 µM (top of the series),inactive: -2.49%
same,"activity, negative = inhibition",[1]; at 51.3 µM (top of the series),inactive: 4.21%
COc1cc2c(cc1OC)-c1cc3ccc(OC)c(OC)c3c[n+]1CC2,Potency,[6],inactive
C#C[C@]1(O)CC[C@H]2[C@@H]3CCC4=CC(=O)CC[C@@H]4[C@H]3CC[C@@]21C,"activity, negative = inhibition",[1]; at 23.6 µM (top of the series),inactive: -8.15%
same,"activity, negative = inhibition",[1]; at 51.3 µM (top of the series),inactive: 1.43%
C[N+]12CCC(CC1)C(OC(=O)C(O)(c1ccccc1)c1ccccc1)C2 (stereo unspecified),Potency,[6],inactive
CN1C(CCl)Nc2cc(Cl)c(S(N)(=O)=O)cc2S1(=O)=O (stereo unspecified),"activity, negative = inhibition",[1]; at 23.6 µM (top of the series),inactive: -0.456%
CN(C)CCOC(C)(c1ccccc1)c1ccccn1 (stereo unspecified),"activity, negative = inhibition",[1]; at 23.6 µM (top of the series),inactive: 2.84%
same,"activity, negative = inhibition",[1]; at 51.3 µM (top of the series),inactive: 2.53% and inactive: -0.906%
O=C1CC[C@H](C(=O)N2CCCCC2)N1,"activity, negative = inhibition",[1]; at 23.6 µM (top of the series),inactive: 0.522%
NC(=O)c1nc(-c2cccc(-c3cc(F)ccc3OCC(F)(F)C(F)(F)F)c2)n[nH]1,Potency,[6],active: 21.7 µM
CSCC[C@H](NC(=O)[C@H](Cc1c[nH]c2ccccc12)NC(=O)CCNC(=O)OC(C)(C)C)C(=O)N[C@@H](CC(=O)O)C(=O)N[C@@H](Cc1ccccc1)C(N)=O,"activity, negative = inhibition",[1]; at 23.6 µM (top of the series),inactive: -2.22%
N[C@@H](CCC(=O)O)C(=O)O,Potency,[6],inactive
Nc1nc2c(ncn2COCCO)c(=O)[nH]1,"activity, negative = inhibition",[1]; at 23.6 µM (top of the series),inactive: 6.59%
CCN(CC)C(C)CN1c2ccccc2Sc2ccccc21 (stereo unspecified),"activity, negative = inhibition",[1]; at 23.6 µM (top of the series),inactive: 1.66%
Cc1onc(-c2ccccc2Cl)c1C(=O)N[C@@H]1C(=O)N2[C@@H]1SC(C)(C)[C@@H]2C(=O)O,"activity, negative = inhibition",[1]; at 23.6 µM (top of the series),inactive: -15.3%
O=C(Nc1ccc([N+](=O)[O-])cc1Cl)c1cc(Cl)ccc1O,"activity, negative = inhibition",[1]; at 10.5 µM (top of the series),inactive: -3.54%
same,"activity, negative = inhibition",[1]; at 51.3 µM (top of the series),inactive: -6.06%
C[N+](C)(C)CCCCCCCCCC[N+](C)(C)C,Potency,[6],inactive
Cc1ccc(S(=O)(=O)NCl)cc1,Potency,[6],inactive
CCN(CCO)CCCC(C)Nc1ccnc2cc(Cl)ccc12 (stereo unspecified),"activity change, negative = inhibition",[3]; at 5.95 µM (top of the series),inactive: 6.4%
same,activation,[4]; at 5.95 µM (top of the series),inactive: -1.34%
same,"activity, negative = inhibition",[6],inactive: -2.29% [at 8.39 µM]
Cc1cccc(C)c1OCC(=O)N[C@@H](Cc1ccccc1)[C@@H](O)C[C@H](Cc1ccccc1)NC(=O)[C@H](C(C)C)N1CCCNC1=O,"activity, negative = inhibition",[1]; at 23.6 µM (top of the series),inactive: -11.6%
NNc1nncc2ccccc12,"activity, negative = inhibition",[1]; at 10.5 µM (top of the series),inactive: 4.6%
same,"activity, negative = inhibition",[1]; at 51.3 µM (top of the series),inactive: 10.2%
same,Potency,[7],active: 54.5 µM
same,Potency,[8],inactive
same,Potency,[9],inactive
CCCCCCCCCCCCCCCCOP(=O)([O-])OCC[N+](C)(C)C,"activity, negative = inhibition",[1]; at 23.6 µM (top of the series),inactive: -4.89%
O=C1OC(c2ccc(O)cc2)(c2ccc(O)cc2)c2ccccc21,"activity, negative = inhibition",[1]; at 23.6 µM (top of the series),inactive: 0.264%
same,"activity, negative = inhibition",[1]; at 51.3 µM (top of the series),inactive: -1.61% and inactive: -0.596%
COc1ccc2cc([C@H](C)C(=O)O)ccc2c1,activation,[10]; at 34.7 µM (top of the series),inactive: -4.9%
same,activation,[10]; at 73.3 µM (top of the series),inactive: -1.24%
same,"activity, negative = inhibition",[11]; at 32.5 µM (top of the series),inactive: 3.72%
same,"activity, negative = inhibition",[11]; at 70.3 µM (top of the series),inactive: 0.857%
same,activation,[12]; at 32.5 µM (top of the series),inactive: 1.13%
same,activation,[12]; at 70.3 µM (top of the series),inactive: 0.233%
same,caspase activation,[13]; at 42.5 µM (top of the series),inactive: -5.5%
same,caspase activation,[13]; at 92.4 µM (top of the series),inactive: -6.52%
O=C(O)c1cn(C2CC2)c2cc(N3CCNCC3)c(F)cc2c1=O,activation,[12]; at 32.5 µM (top of the series),inactive: -1.47%
same,caspase activation,[13]; at 42.5 µM (top of the series),inactive: -1.01%
O[C@@H](c1cc(C(F)(F)F)nc2c(C(F)(F)F)cccc12)[C@H]1CCCCN1,Potency,[14],active: 21.3 µM
CN1C(=O)CC(c2ccccc2)C1=O (stereo unspecified),Potency,[7],inactive
same,Potency,[8],inactive
same,Potency,[9],inactive
C[C@H]1C[C@H]2[C@@H]3CCC4=CC(=O)C=C[C@]4(C)[C@@]3(F)[C@@H](O)C[C@]2(C)[C@@]1(O)C(=O)CO,Potency,[9],inactive
OC(Cn1cncn1)(Cn1cncn1)c1ccc(F)cc1F,Potency,[15],active: 2.85 µM and active: 3.17 µM and active: 7.76 µM
CC1=C(C(=O)O)N2C(=O)[C@@H](NC(=O)[C@H](N)c3ccc(O)cc3)[C@H]2SC1,Potency,[8],inactive
same,Potency,[9],inactive
CN1CCN(CCCN2c3ccccc3Sc3ccc(C(F)(F)F)cc32)CC1,Potency,[7],inactive
same,Potency,[9],active: 28.2 µM
